Experimental findings from patent US11236094B2, “Substituted pyrrolo[2,1-f][1,2,4]triazines as FGFR inhibitors” (CSPC ZHONGQI PHARMACEUTICAL TECHNOLOGY (SHIJIAZHUANG) CO., …, priority 2017, dated 2022) are described below.

The series is described as follows: Pharmacokinetics in mice in vivo. As to conditions: Balb/c mice, intravenous injection (3 npk).

On to `C=CC(=O)N1CCC(c2cc(-c3cc4cc(C)cc(OC)c4s3)c3c(N)ncnn23)C1` (stereo not drawn) [Example 1], for which the “Area under the curve, AUC” value is 5.073 µM·h; the Clearance rate was 22.7 mL/min/kg; the “Half-life T1/2” value came out at 1.09 h.
